Assay results published in patent US20120094939A1, “ANTI-VIRAL COMPOUNDS, COMPOSITIONS AND METHODS” (priority 2007, published 2012).

Tested on: OR6 cells
Experiment: Secondary assay cell viability (CellTiter-Glo)
Conditions: 48 hours

In the case of CC[C@H](C)C(=O)O[C@H]1C[C@@H](C)C=C2C=C[C@H](C)[C@H](CC[C@@H]3C[C@@H](O)CC(=O)O3)[C@H]21 [Lovastatin, lovastatin], the “cytotoxicity (in words)” value is reported as “significantly cytotoxic at 10, 50, and 100 μM”.
